{"source": "patent US20020069423A1", "about": "(priority 2000, published 2002)", "system": "untransfected bovine fetal fibroblasts (BFF cells)", "experiment": "G418 drug selection (kill curve) of untransfected BFF cells", "type": "cell-based", "details": "period of ten days; 400 to 3000 ug/ml tested"}
{"smiles": "CN[C@@H]1[C@@H](O)[C@@H](O[C@@H]2[C@@H](O)[C@H](O[C@H]3O[C@H]([C@@H](C)O)[C@@H](O)[C@H](O)[C@H]3N)[C@@H](N)C[C@H]2N)OC[C@]1(C)O", "note": "[G418, geneticin (G418)]", "values": [{"measurement": "optimal drug selection concentration producing stable, neomycin-resistant colonies", "value": 400, "unit": "µg/mL"}]}
